Measurements as given in paper PMC7305236, “The atypical chemokine receptor ACKR3/CXCR7 is a broad-spectrum scavenger for opioid peptides” (Nature Communications, 2020).

Assay: Figure 7f: response to FBS, CXCL12, opioid peptides and LIH383 relative to Medium
Assay type: cell-based
Settings: Medium about 1; replicate 3

For CXCL12, the “Figure 7f value” was 1.165.
